The target in the assay is human GPR40 (Homo sapiens, UniProt O14842). The assay is described as follows: Inositol Phosphate Turnover (IP1) Assay 1. The following applies: read-out: Human IP1 EC50 (nM) (IP1) Assay 1; HEK cells stably expressing human GPR40; compound transferred via pocket tip; 60 minutes at 37 degrees. As for the experimental part:
Human and mouse GPR40 stable cell-lines were generated in CHO cells stably expressing NFAT BLA (Beta-lactamase). A human GPR40 stable cell-line was generated in HEK cells stably expressing the aequorin expressing reporter. The expression plasmids were transfected using lipofectamine (Life Technologies) following manufacturer's instructions. Stable cell-lines were generated following drug selection.
The assay is performed in 384-well format. HEK cells stably expressing human GPR40 are plated at 15,000 cells per well in growth medium (DMEM/10% fetal calf serum). Cell plates are then incubated 16 hours at 37 degrees in a 5% CO2 incubator.
Measurement of Inositol Phosphate Turnover (IP1) is performed using the CisBio IP-One kit (Part number 62IPAPEB). After the 16 hour incubation, the cells are washed with HEPES buffer and 10 ul of stimulation buffer (prepared as described in the kit) is added to each well. In a separate plate, compounds are diluted in DMSO (400-fold over the final concentration in the assay well) and 25 nl is transferred via pocket tip to the appropriate well in the assay cell plate. The plates are then incubated for 60 minutes at 37 degrees. […] The plates are then read in a Perkin Elmer EnVision or equivalent reader able to measure FRET. […]

By UniProt entry, the sequences of proteins in these tests, tags left out.
UniProt O14842, whole entry: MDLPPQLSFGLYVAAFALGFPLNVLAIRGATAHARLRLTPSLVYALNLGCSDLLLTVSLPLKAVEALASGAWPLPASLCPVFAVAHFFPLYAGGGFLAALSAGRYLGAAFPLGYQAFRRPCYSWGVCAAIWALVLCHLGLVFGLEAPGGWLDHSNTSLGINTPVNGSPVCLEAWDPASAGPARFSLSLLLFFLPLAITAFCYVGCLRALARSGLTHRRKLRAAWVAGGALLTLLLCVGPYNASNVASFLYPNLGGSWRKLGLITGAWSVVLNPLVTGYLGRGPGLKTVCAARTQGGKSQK

SMILES strings stand for the structures.

What is called EC50 is the concentration giving half of the maximal effect.

In the case of `COc1ccc(F)c(-c2ccc(C3COc4ccc(C(C5CC5)C(C)C(=O)O)cc4C3)cc2)c1` (stereo not shown), the EC50 was determined as 9 nM.

The values are drawn from patent US10662171B2, “Antidiabetic bicyclic compounds” (Merck Sharp & Dohme Corp., priority 2014, dated 2020).
